Yeast mating assay 2: variants of the scFv Ab-95

Reference: Engelhart et al. 2022, doi:10.1038/s41597-022-01779-4. File: FLAb, binding data.

Binding partner: SARS-CoV-2 spike HR2 peptide, sequence PDVDLGDISGINAS.

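Phage display of a naive human antibody library on the peptide gave the parent. AAYL52 was designed without a model: most single CDR substitutions and a random sample of double and triple ones. In AlphaSeq, yeast of one mating type display the scFv and yeast of the other type display the target. Mating (16 h, 30 °C) was followed by selection of diploids and sequencing of their barcodes. Scores were corrected for input abundance and mapped to Kd with protein pairs of known affinity run in the same pool. The assay was run in three technical replicates.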

Parent scFv Ab-95: VH joined to VL by a (GGGGS)3 linker. Changes lie in the light chain CDRs alone.
VH: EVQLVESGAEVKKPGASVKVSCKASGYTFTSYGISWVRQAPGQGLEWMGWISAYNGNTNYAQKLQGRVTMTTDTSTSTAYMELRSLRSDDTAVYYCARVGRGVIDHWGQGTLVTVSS
VL: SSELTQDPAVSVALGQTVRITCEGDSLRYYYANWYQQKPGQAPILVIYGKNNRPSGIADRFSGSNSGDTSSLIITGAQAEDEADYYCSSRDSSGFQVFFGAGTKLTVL

Each variant is given by its three light chain CDRs, as the data file delimits them; those of the parent are EGDSLRYYYAN, GKNNRPS, SSRDSSGFQVF. This list gathers variants with a substitution at Y30 (VL, numbered from residue 1). Numbers give log10(Kd / nM), so 0 is 1 nM and 3 is 1 µM. Smaller is tighter. Averages over replicates are reported, and they cover detected replicates only. "nd" marks a missing value. The strain was present, yet no cells mated with the target were sequenced in that replicate, which points to weak or no binding. As a blank, each scFv also met three strains without target: over library AAYL52, 28% of these pairings were detected, typically at 3.91 and seldom below 2.90. For each scFv, signals with the empty controls are counted beside the result.

For EGDSLRYCYAN / GKNNRPS / SSRDSSLFQVM, the assay gave nd, nd, 4.33 (controls 1 of 9). The variant EGDSLRYKYAN / GKNNRPS / GSRDSSGFLVF showed 2.20, 1.80, 1.49 (mean 1.83; controls 1 of 9). For EGDDLRYMYAN / GKNNRPS / SSRDSSGFQVF, the assay gave 1.69, 1.27, 0.82 (mean 1.26; controls 0 of 9). With FGDSLRYWYAN / GKNNRPS / SSRDSSGGQVF the result was 2.76, 2.34, 2.91 (mean 2.67; controls 2 of 9). For EKDSLRYRYAN / GKNNRPS / SSTDSSGFQVF, the assay gave 4.72, nd, nd (controls 2 of 9). The variant EGDSHRYVYAN / GKNNRPS / SSRDSSGFQVH gave 3.18, 3.54, nd (mean 3.36; controls 4 of 9). For EKDSLRYDYAN / GKNNRPV / SSRDSSGFQVF, the assay gave 2.36, 2.18, 2.56 (mean 2.37; controls 1 of 9).

With EGDSLRYPYAN / RKNNRPS / SSRDDSGFQVF the result was nd, 3.04, nd (controls 1 of 9). With AGDSLRYPYAN / GKNNRPS / ESRDSSGFQVF the result was 2.36, 2.25, 2.23 (mean 2.28; controls 2 of 9). The variant EGDSLRYEYAN / GGNNRRS / SSRDSSGFQVF showed 1.91, 1.95, 1.63 (mean 1.83; controls 2 of 9). The variant EGDSLRYFYKN / GKNNRPS / SDRDSSGFQVF showed 6.00, 3.96, 4.01 (mean 4.66; controls 5 of 9). The variant EGDSWRYPYAN / GKNNRPS / SSRDSSGFQLF gave 2.86, 3.41, 2.84 (mean 3.04; controls 1 of 9). For FGDSLRYGYAN / GINNRPS / SSRDSSGFQVF, the assay gave 1.76, 1.65, 0.96 (mean 1.46; controls 3 of 9). With EGDCLRYQYAN / GKNNRPS / SSRMSSGFQVF the result was nd, nd, 4.42 (controls 0 of 9).

The variant EGDSLRYNYAN / GKNNRWS / SSRMSSGFQVF gave 1.63, 1.71, 1.39 (mean 1.58; controls 0 of 9). With EGDSLRYWYAN / GKNNRPS / SLWDSSGFQVF the result was 3.13, 3.07, 2.36 (mean 2.85; controls 1 of 9). The variant EGDSLIYIYAN / GKNNRPS / SSRDSSGFQVK gave nd, nd, nd (controls 2 of 9). With EGDSLRYNYAN / GKNNRPS / SSWDSSGFQLF the result was 1.09, 1.07, 0.63 (mean 0.93; controls 1 of 9). The variant EGDSLRYWYAN / GKNNRPS / SSRDSSGFQVF showed 2.34, 2.50, 2.01 (mean 2.28; controls 1 of 9). With EGDSLRYMYAN / GENNRPK / SSRDSSGFQVF the result was 2.00, 1.67, 1.41 (mean 1.69; controls 3 of 9). For EGDSLRYQYAN / GKNNRPS / LSRDSSGFAVF, the assay gave 1.51, 1.53, 1.41 (mean 1.48; controls 5 of 9).

The variant EGDSLRYGYAT / GKNNRPS / SSRDSSGRQVF showed 2.31, 2.19, 1.92 (mean 2.14; controls 1 of 9). For EGDSLRYCETN / GKNNRPS / SSRDSSGFQVF, the assay gave 1.69, 1.20, 0.86 (mean 1.25; controls 1 of 9). For EGDSLRYSYAN / GKNNRPS / SSRDSSGFQVF, the assay gave 0.92, 0.73, 0.34 (mean 0.66; controls 7 of 9). The variant EQDSLRYQYAN / GKNNRES / SSRDSSGFQVF showed 3.12, 2.46, 3.71 (mean 3.09; controls 0 of 9). With NGDSLRYDYAN / GKNERPS / SSRDSSGFQVF the result was 1.71, 1.66, 1.27 (mean 1.55; controls 5 of 9). The variant EGDSLRYDYAN / GKNNRPS / LSGDSSGFQVF showed nd, 5.30, 3.00 (mean 4.15; controls 2 of 9). For EGDSLRYEYAN / GKNNEPS / VSRDSSGFQVF, the assay gave 3.70, nd, 3.58 (mean 3.64; controls 4 of 9).

For EGDSLRYAYAE / GGNNRPS / SSRDSSGFQVF, the assay gave 3.83, 3.30, 3.00 (mean 3.38; controls 0 of 9). The variant EGDRLRYMYAN / GKNNRPS / SSRDSSNFQVF gave 3.79, 4.07, 3.86 (mean 3.91; controls 2 of 9). The variant EGDSLQYRYAN / GKNNRPS / SSRDGSGFQVF gave 2.38, 2.21, 1.89 (mean 2.16; controls 3 of 9). The variant EGDSLRYKYAN / GKNNRPS / SSRDSSGFWVD showed 2.72, 2.66, 3.09 (mean 2.82; controls 4 of 9). The variant EGDSLRYIYAN / GKNNKPS / SSRDFSGFQVF gave 3.00, 3.28, 3.58 (mean 3.29; controls 0 of 9). For EGDSLRYMYTG / GKNNRPS / SSRDSSGFQVF, the assay gave nd, 3.77, nd (controls 6 of 9). For EGDSLRYQYAN / GENNRPS / SSRYSSGFQVF, the assay gave 0.89, 1.21, 0.33 (mean 0.81; controls 2 of 9).

For EGDSLRYTYAN / GKNNRPE / SSRWSSGFQVF, the assay gave 2.30, 2.72, 2.11 (mean 2.38; controls 4 of 9). The variant ECDSLVYTYAN / GKNNRPS / SSRDSSGFQVF gave 3.51, 3.32, 2.74 (mean 3.19; controls 3 of 9). The variant EGDSLRYVYAN / GKNNRPS / SSLDSSGRQVF showed 2.46, 2.28, 2.50 (mean 2.41; controls 2 of 9). The variant EGDSLRYMYAN / GKNNRPS / SSRDSSGFQVF showed 1.18, 1.10, 0.83 (mean 1.03; controls 2 of 9). With EGDSLRYEYAN / QKNNRPS / VSRDSSGFQVF the result was 2.76, 2.56, 2.42 (mean 2.58; controls 1 of 9). With ELDSLRYTYAN / GKNNRPS / SSRDSSGFIVF the result was 3.15, 3.28, 3.56 (mean 3.33; controls 6 of 9). The variant EGDSLRYMYAN / GKNNRPS / SSRDLSGFQVF showed 1.63, 1.83, 1.44 (mean 1.63; controls 2 of 9).

With EGDSNRYVYAN / GHNNRPS / SSRDSSGFQVF the result was 3.60, 3.83, nd (mean 3.72; controls 3 of 9). With EGDSLRYDYYN / GKNNRPS / SSRDMSGFQVF the result was 4.57, 3.47, nd (mean 4.02; controls 2 of 9).

3 of these entries, quoted again:

EGDSLRYNYAN / GKNNRPS / SSWDSSGFQLF: 1.09, 1.07, 0.63 (mean 0.93; controls 1 of 9).
EGDSLRYEYAN / GGNNRRS / SSRDSSGFQVF: 1.91, 1.95, 1.63 (mean 1.83; controls 2 of 9).
NGDSLRYDYAN / GKNERPS / SSRDSSGFQVF: 1.71, 1.66, 1.27 (mean 1.55; controls 5 of 9).